For the assay, the target named is Albumin (Homo sapiens, UniProt P02768). The assay can be described thus: Binding affinity to human serum albumin assessed as dissociation constant by fluorescence emission spectrophotometric analysis. In kind it is ADME, cell-free.

The chains behind the UniProt entries cited, without tags or fusion partners.
UniProt P02768, whole entry: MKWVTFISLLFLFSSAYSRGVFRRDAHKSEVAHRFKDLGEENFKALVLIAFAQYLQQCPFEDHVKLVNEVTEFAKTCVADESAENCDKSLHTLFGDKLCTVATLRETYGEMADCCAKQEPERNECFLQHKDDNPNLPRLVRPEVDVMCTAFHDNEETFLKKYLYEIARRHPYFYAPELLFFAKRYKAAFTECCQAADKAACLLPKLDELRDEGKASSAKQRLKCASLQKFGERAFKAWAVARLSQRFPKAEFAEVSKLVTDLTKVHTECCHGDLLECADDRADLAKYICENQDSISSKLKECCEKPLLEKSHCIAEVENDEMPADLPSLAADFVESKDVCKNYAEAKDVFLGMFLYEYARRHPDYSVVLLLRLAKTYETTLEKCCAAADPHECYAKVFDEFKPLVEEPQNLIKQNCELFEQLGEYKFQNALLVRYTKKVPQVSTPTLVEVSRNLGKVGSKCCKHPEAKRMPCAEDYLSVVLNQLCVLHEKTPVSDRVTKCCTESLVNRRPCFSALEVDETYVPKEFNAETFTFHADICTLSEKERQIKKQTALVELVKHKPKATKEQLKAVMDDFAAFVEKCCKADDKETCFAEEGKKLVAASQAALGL

Experimental findings from ChEMBL document CHEMBL4814008, “Using porphyrins as albumin-binding molecules to enhance antitumor efficacies and reduce systemic toxicities of antimicrobial peptides” (Eur J Med Chem, 2021) are described below.

Regarding `Cc1cc(-c2ccc(/N=N/c3ccc4c(S(=O)(=O)O)cc(S(=O)(=O)O)c(N)c4c3O)c(C)c2)ccc1/N=N/c1ccc2c(S(=O)(=O)O)cc(S(=O)(=O)O)c(N)c2c1O` [EVANS BLUE], the Kd (usually the concentration at which binding is half-saturated) came out at 2500 nM.
